Experimental data: patent publication US20100311683A1, “CYTIDINE ANALOGS FOR TREATMENT OF MYELODYSPLASTIC SYNDROMES” (priority 2007, published 2010)

Legend:
[1] = tested on: patients with higher risk MDS; conditions: in vivo
[2] = tested on: higher risk MDS patients ≥75 yrs of age
[3] = tested on: patients with higher risk MDS; experiment: AZA-001 analysis: number of AZA cycles to first and best response
[4] = tested on: patients with AML or high-risk MDS after HSCT

Nc1ncn([C@@H]2O[C@H](CO)[C@@H](O)[C@H]2O)c(=O)n1 [azacitidine, 4-amino-1-β-D-ribofuranosyl-1,3,5-triazin-2(1H)-one]
reduction in infections requiring intravenous antimicrobials vs CCR [1]: 34%
Anemia [2]: 42%
Discontinuations due to an AE [2]: 13%
HR OS, AZA vs CCR [2]: 0.48
Infections [2]: 79%
OS rate at 2 years [2]: 55%
thrombocytopenia [2]: 71%
tolerability [2]: generally well tolerated
RBC transfusion-dependent patients at baseline who achieved TI ([2]; 10/23): 44%
KM median OS ([2]; AZA n=38, at 17.7 months of follow-up): not reached
patients who achieved a CR, PR, or HI ([3]; 91 of 179 AZA-treated patients): 51%
median number of cycles to first response ([3]; 91 responders): 3 cycles
responders who had achieved a first response at 6 cycles ([3]; 91 responders): 81%
responders who had achieved a first response at 9 cycles ([3]; 91 responders): 90%
median additional treatment cycles after first response to improved response ([3]; in vivo): approximately 4 cycles
responders who improved their response status over the next 1-11 treatment cycles ([3]; n=38): 42%
safety ([4]; 32 mg/m2, at least 4 cycles): safe
AZA-associated (or possibly associated) toxicity: grade I/II thrombocytopenia ([4]; AZA 8-32 mg/m2 daily x5, 42 patients): 5 n
toxicity: grade II creatinine elevation ([4]; context of multiple nephrotoxic drugs): 1 n
toxicity: grade III elevation of transaminases ([4]; drug given with posaconazole and pentamidine): 1 n
toxicity: grade III thrombocytopenia ([4]; in association with MMF and sirolimus): 2 n
effect on acute or chronic GVHD incidence ([4]; in vivo): no indication of an effect
toxicity: grade I nausea ([4]; in vivo): 5 n
toxicity: grade II fatigue ([4]; in vivo): 2 n
toxicity: pruritus ([4]; in vivo): 1 n
toxicity: pulmonary hemorrhage ([4]; in vivo): 1 n
toxicity: oral ulcers ([4]; in vivo, po): 1 n
